Experimental data taken from ChEMBL document CHEMBL4321786, “Discovery of Small Molecule Renal Outer Medullary Potassium (ROMK) Channel Inhibitors: A Brief History of Medicinal Chemistry Approaches To Develop Novel Diuretic Therapeutics” (J Med Chem, 2019).

What was measured:
[1] = target: T1, ATP-sensitive inward rectifier potassium channel 1 (Homo sapiens, UniProt P48048); assay: Inhibition of ROMK (unknown origin)
T1 sequence (P48048 whole entry): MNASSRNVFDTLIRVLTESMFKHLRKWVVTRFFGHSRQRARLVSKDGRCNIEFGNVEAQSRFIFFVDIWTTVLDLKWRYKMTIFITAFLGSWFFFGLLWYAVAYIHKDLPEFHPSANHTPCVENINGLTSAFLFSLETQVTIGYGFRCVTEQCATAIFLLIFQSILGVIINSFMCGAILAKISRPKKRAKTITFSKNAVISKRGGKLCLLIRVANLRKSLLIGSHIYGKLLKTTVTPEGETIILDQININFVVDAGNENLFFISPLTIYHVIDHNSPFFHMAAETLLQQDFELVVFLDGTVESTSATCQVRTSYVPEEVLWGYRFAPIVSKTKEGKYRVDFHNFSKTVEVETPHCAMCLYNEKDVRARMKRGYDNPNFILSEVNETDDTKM

Kir3.1/Kir3.4 = target: T2, Kir3.1/Kir3.4 (Homo sapiens, UniProt P48544+P48549); assay: Inhibition GIRK1/4 (unknown origin); format: protein-complex assay
T2 sequence (P48549 whole entry): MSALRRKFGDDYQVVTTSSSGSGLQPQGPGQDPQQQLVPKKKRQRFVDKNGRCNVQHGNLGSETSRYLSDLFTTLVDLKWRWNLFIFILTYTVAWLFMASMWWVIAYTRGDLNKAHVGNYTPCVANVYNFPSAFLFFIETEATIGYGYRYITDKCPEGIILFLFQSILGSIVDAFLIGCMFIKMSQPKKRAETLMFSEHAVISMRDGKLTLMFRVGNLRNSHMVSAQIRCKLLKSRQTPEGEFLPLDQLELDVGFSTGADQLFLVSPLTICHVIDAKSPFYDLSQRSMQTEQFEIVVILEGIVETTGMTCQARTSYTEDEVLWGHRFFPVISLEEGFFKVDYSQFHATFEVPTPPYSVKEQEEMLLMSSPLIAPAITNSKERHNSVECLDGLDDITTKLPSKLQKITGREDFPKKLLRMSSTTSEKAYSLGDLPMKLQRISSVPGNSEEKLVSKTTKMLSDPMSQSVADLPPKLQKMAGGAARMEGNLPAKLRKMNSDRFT
T2 sequence (P48544 whole entry): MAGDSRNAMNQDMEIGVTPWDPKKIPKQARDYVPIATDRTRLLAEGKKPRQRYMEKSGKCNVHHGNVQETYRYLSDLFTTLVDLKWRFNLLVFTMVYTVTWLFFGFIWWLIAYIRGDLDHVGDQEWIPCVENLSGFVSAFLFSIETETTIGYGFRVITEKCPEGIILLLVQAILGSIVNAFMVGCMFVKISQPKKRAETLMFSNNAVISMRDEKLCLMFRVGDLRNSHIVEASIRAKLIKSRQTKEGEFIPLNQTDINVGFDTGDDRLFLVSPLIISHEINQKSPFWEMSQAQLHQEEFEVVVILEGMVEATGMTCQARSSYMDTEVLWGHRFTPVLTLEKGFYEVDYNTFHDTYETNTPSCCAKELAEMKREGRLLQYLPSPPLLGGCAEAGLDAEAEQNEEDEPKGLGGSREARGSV

CC[C@H](C)[C@@H]1NC(=O)[C@H](CCCNC(=N)N)NC(=O)[C@H](CC(N)=O)NC(=O)[C@@H]2CSSC[C@@H](C(=O)NCC(=O)N[C@@H](CCCCN)C(=O)N[C@@H](CCCCN)C(N)=O)NC(=O)[C@H](CCCCN)NC(=O)[C@H](CCCCN)NC(=O)[C@H](Cc3c[nH]c4ccccc34)NC(=O)[C@H](CSSC[C@H](NC(=O)[C@H](CC(C)C)NC(=O)[C@H](C)N)C(=O)N[C@@H](CC(N)=O)C(=O)N2)NC(=O)[C@H](CCSC)NC(=O)[C@H](Cc2c[nH]cn2)NC(=O)[C@@H]2CCCN2C(=O)[C@H]([C@@H](C)CC)NC(=O)[C@H]([C@@H](C)CC)NC1=O
Ki [1]: 2 nM | Ki (Kir3.1/Kir3.4): 8.2 nM
